The list shows a part of the results, in another mix than the full data. Results filed as inconclusive are left out. Where a structure was tested more than once in an assay, its records may differ in their call. Calls of active or inactive are those of the source. Calls come from the whole dose curve; as a rule, active = well fitted cell-killing curve with a large enough effect in the repeat runs; inconclusive = weak or mixed curves, or effect the other way; inactive = no such curve, though single readings can be large or run the other way.
Test: qHTS assay to identify small molecule antagonists of the sonic hedgehog signaling (Shh) pathway - cell viability counter screen (AID 1259367); note: nearly all actives have a fitted effect of over 55% in size
Conditions: NIH/3T3 Gli1-Luc viability, CellTiter-Fluor, 24 h; series mostly up to 92.4 µM; viability change, negative = cytotoxic: at the top concentration
From the text: National Center for Advancing Translational Sciences [NCATS]
NIH Chemical Genomics Center [NCGC]
U.S. Environmental Protection Agency [EPA]
National Institutes of Environmental Health Sciences [NIEHS]
National Toxicology Program [NTP]
U.S. Food and Drug Administration [FDA]
The sonic hedgehog (Shh) pathway is essential for normal embryonic development. Dysregulation of the Shh pathway can cause severe developmental defects in organs. Therefore chemicals that interfere with the pathway are potential developmental toxicants. A cell line designated 3T3Gli1-Luc (DMB/OARSA/CFSAN/FDA, Laurel, MD), a NIH/3T3 derived clone containing stably integrated Gli1-Luc reporter is used to detect chemical interference of the Shh pathway, by changes in the expression of the firefly Luc gene under the control of the Gli1 transcriptional response element. This cell line was used to screen Tox21 libraries for identifying and prioritizing the potential developmental toxicants that interfere Shh pathway. Conditioned medium-stimulated mode was used to screen for chemicals inhibiting Shh signaling. The cytotoxicity of the compounds was tested in parallel by measuring the cell viability using CellTiter-Fluor assay system (Promega, Madison, WI) in the same wells.
Tox21 Assay Protocol Summary:
3T3 Gli1-Luc cells were dispensed at 2,000 per well in 5uL of culture medium into white solid bottom 1536-well plates (Greiner Bio-One, Monroe, NC) using a Multidrop Combi (Thermo Scientific, Waltham, MA) dispenser. The assay plates were incubated at 37 C and 5% CO2 for 4hr, and then 23nL of compounds dissolved in DMSO and positive control were transferred using a Pintool station (Wako, San Diego, CA). The compound transfer was followed by the addition of 1ul conditioned medium or assay buffer using two separate tips of Flying Reagent Dispenser (FRD, Aurora Discovery, San Diego, CA). The assay plates were incubated at 37C and 5% CO2 for 24hr. For viability read, after 23hr of compound treatment, 1uL of CellTiter-Fluor reagent (Promega Corporation, Madison, WI) was added to each well of the assay plates using Flying Reagent Dispenser (FRD, Aurora Discovery, San Diego, CA) and incubated the assay plates at 37C for 1hr. The fluorescence signal was quantified using a ViewLux plate reader (Perkin Elmer, Shelton, CT).
% is set by controls: 0 for no effect and ±100 for the full control effect; potency is the fitted concentration of half-maximal effect.

Compound | viability change, negative = cytotoxic | Potency
O=[p+]1oc2ccccc2c2ccccc21 (stereo not given) | inactive: -0.424% | –
O=[P+](Oc1ccccc1)Oc1ccccc1 | inactive: 4.7% | –
O=C(Cl)OCCOC(=O)Cl | inactive: 2.63% | –
O=P(Cl)(Cl)c1ccccc1 | inactive: 3.99% | –
COC(=O)Cl | inactive: 1.56% | –
CCOC(=O)Cl | inactive: 1.58% | –
NC(=O)Nc1ccc([As](=O)(O)O)cc1 | – | inactive
O=P(Cl)(Oc1ccccc1)Oc1ccccc1 | inactive: 1.37% | –
O=[N+]([O-])c1ccc(S(=O)(=O)O)c([N+](=O)[O-])c1 | inactive: 2.98% | –
CCCCCCCCCCCCCC[P+](CCCCCC)(CCCCCC)CCCCCC | – | active: 48.4 µM
COP(=S)(Cl)OC | inactive: 0.336% | –
O=[As]c1ccccc1 (stereo not given) | – | active: 0.344 µM
CN(C(=O)Cc1cccc2occc12)[C@H]1CC[C@@]2(CCCO2)C[C@@H]1N1CCCC1 | inactive: -19.4% | –
CCCCO[P+](=O)OCCCC | – | inactive
CCCCC(CC)CO[P+](=O)OCC(CC)CCCC (stereo not given) | inactive: -0.214% | –
CCNC(C)Cc1ccc2c(c1)OCO2 (stereo not given) | inactive: -5.67% | –
CCC(C)(OOC(C)(C)C)OOC(C)(C)C | inactive: 5.19% [at 19 µM] | –
O=C(Cl)Oc1ccccc1 | inactive: 3.44% | –
CCOP(=S)(CC)Sc1ccccc1 (stereo not given) | inactive: -3.72% | –
CC(C)CCCCCCCOP(OCCCCCCCC(C)C)Oc1ccccc1 | inactive: 0.994% | –
CN(N=O)C(=N)N[N+](=O)[O-] | inactive: 1.85% | –
CCCCOP(OCCCC)OCCCC | inactive: 0.297% | –
ClP(Cl)c1ccccc1 | inactive: 4.26% | –
Cc1cc([N+](=O)[O-])c(O)c([N+](=O)[O-])c1 | inactive: -16.6% | –
CC(C)OP(=S)(OC(C)C)SCCNS(=O)(=O)c1ccccc1 | inactive: -1.26% | –
